Reference: US11613587B2, “Combination therapy of T cell activating bispecific antigen binding molecules and PD-1 axis binding antagonists” (Hoffmann-La Roche Inc., priority 2014, dated 2023)

Tested on: TIM-3 pathway in PBMCs
Experiment: Mixed lymphocyte reaction (MLR), IFN-gamma secretion
Type: cell-based, human
Conditions: compound concentration 10 μg/ml, 6 days
Description: T cells in the assay were tested for activation and theier IFN-gamma secretion in the presence or absence of an anti-TIM-3 mAbs.
Human Lymphocytes were isolated from peripheral blood of healthy donor by density gradient centrifugation using Leukosep (Greiner Bio One, 227 288). Briefly, heparinized blood were diluted with the three fold volume of PBS and 25 ml aliquots of the diluted blood were layered in 50 ml Leukosep tubes. After centrifugation at 800×g for 15 min at room temperature (w/o break) the lymphocyte containing fractions were harvested, washed in PBS and used directly in functional assay or resuspended in freezing medium (10% DMSO, 90% FCS) at 1.0E+07 cells/ml and stored in liquid nitrogen. […] The levels of IFN-gamma were measured using OptEIA ELISA kit (BD Biosciences).

IL-2: rec hu IL-2 (20 EU/ml), positive control in MLR (=100%)
Percentage induced IFNgamma release in comparison to rec hu IL-2 (20 EU/ml) (=100%): 100%
